Reference: patent US8633204B2 (Pfizer Inc., priority 2006, dated 2014)

Chains of the proteins cited; added tags and fusions are not shown.
UniProt P42337, whole entry: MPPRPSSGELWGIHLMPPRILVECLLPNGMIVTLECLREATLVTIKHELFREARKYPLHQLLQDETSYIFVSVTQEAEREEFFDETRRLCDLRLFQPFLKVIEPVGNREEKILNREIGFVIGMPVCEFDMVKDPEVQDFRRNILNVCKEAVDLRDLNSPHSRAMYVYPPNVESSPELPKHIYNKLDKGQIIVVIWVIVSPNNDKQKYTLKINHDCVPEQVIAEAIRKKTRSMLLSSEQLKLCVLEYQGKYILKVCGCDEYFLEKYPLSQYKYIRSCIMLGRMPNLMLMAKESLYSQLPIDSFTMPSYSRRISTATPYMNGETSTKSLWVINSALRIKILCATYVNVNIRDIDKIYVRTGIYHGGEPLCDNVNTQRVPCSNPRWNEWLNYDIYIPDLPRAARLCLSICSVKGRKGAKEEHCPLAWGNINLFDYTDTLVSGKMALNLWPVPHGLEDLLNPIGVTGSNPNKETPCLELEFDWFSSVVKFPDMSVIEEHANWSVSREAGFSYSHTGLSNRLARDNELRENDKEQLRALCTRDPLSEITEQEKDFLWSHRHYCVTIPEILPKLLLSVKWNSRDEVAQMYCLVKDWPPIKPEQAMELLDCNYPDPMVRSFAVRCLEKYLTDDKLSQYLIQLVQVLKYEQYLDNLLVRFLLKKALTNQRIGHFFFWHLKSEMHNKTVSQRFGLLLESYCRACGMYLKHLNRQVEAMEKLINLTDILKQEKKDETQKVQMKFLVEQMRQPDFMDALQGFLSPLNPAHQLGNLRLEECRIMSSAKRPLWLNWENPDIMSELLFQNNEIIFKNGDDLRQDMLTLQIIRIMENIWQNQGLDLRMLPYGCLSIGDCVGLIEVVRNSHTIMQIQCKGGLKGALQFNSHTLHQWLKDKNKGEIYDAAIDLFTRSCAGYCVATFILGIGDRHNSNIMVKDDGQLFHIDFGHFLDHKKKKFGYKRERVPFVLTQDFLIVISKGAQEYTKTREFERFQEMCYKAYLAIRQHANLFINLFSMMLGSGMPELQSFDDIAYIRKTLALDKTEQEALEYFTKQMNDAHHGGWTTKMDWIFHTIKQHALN

Biological target: PI3-Kα (Mus musculus (Mouse), UniProt P42337)
Assay: PI3-Kα Biochemical Assay (fluorescence polarization kinase assay)
Procedure: Compounds of the present invention were evaluated for potency against PI3-Kα using an in vitro kinase assay. PI3-Kα activity is measured in vitro by determining the level of phosphorylation of the substrate PI(4,5)P2. The formation of product PI(3,4,5)P3 is monitored by binding to the Grip1 PH domain in a ligand displacement fluorescence polarization (FP) assay, in which the TAMRA-labeled PI(3,4,5)P3 complexed with Grip1 PH domain is displaced by PI(3,4,5)P3 formed in the PI3-Kα reaction resulting in a decrease in FP signal. Mouse PI3-Kα P110 and P85 subunits were co-expressed in insect cells and co-purified to homogeneity. PI(4,5)P2 were obtained from Cayman. TAMRA-labeled PI(3,4,5)P3 were from Echelon, Grip1 PH domain from Dundee and other reagents were from Sigma.
All assays were performed in a Corning solid black 96-well half area plate using LJL Analyst (Molecular Devices) at room temperature. The assay buffer contained 50 mM HEPES, pH 7.4, 150 mM NaCl, 5 mM DTT, and 0.05% CHAPS. Dry powder PI(4,5)P2 was dissolved in 50 mM TRIS, pH 8 to make 1 mM stock solution. The PI(4,5)P2 stock solution was then diluted in the assay buffer to 60 μM, and sonicated for 30 sec before use. To the assay plate, the following reagents were added in sequence: 10 μL of 60 μM PI(4,5)P2, 5 μL of 4 nM PI3-Kα, 2 μL of compound in 25% DMSO, 3 μL of mixture containing 200 μM ATP and 33 mM MgCl2. The final volume for the reaction was 20 μL. The reaction mixture was incubated at room temperature for 35 min. The reaction was then stopped by 20 μL of 20 mM EDTA. […] The FP signal was allowed to develop for 40 min before reading on a LJL analyst at excitation 535 nm and emission 580 nm.
The percentage of inhibition was calculated based on the following equation % inhibition=[1−(FPcompound−FPmax)/(FPmin−FPmax)]×100, where FPcompound is the FP reading at a given compound concentration, FPmin is the FP signal of the PI3-Kα reaction in the absence of a compound, and FPmax is the background FP signal in the absence of PI3-Kα and a compound. The IC50 was determined by fitting the FP signal vs. compound concentration to a sigmoidal dose response equation using GraphPad Prism curve fitting program.

Row | IC50 [nM] | SMILES
1 | 5.03 | CCNc1nc(C)c2cc(-c3ccc(OC)nc3)c(=O)n(C3CCCC3)c2n1 [Compound 139, 8-cyclopentyl-2-(ethylamino)-6-(6-methoxypyridin-3-yl)-4-methylpyrido[2,3-d]pyrimidin-7(8H)-one]
2 | 1.03 | CNc1nc(C)c2cc(-c3ccc(OC)nc3)c(=O)n(C3CCCC3)c2n1 [Compound 140]
3 | 17.6 | Cc1nc(N)nc2c1cc(-c1cnc3ccccc3c1)c(=O)n2[C@H]1CC[C@H](OCCO)CC1 [Compound 289, 2-amino-8-(trans-4-(2-hydroxyethoxy)cyclohexyl]-4-methyl-6-quinolin-3-ylpyrido[2,3-d]pyrimidin-7(8H)-one]
4 | 29.4 | Cc1nc(N)nc2c1cc(-c1cn[nH]c1)c(=O)n2C(C)C [Compound 208, 2-amino-8-isopropyl-4-methyl-6-(1H-pyrazol-4-yl)pyrido[2,3-d]pyrimidin-7(8H)-one]
5 | 14.6 | Cc1nc(N)nc2c1cc(-c1ccn[nH]1)c(=O)n2[C@H]1CC[C@H](OCCO)CC1 [Compound 301, 2-amino-8-[trans-4-(2-hydroxyethoxy)cyclohexyl]-4-methyl-6-(1H-pyrazol-3-yl)pyrido[2,3-d]pyrimidin-7(8H)-one]
6 | 8.2 | COc1ccc(-c2cc3c(C)nc(N)nc3n(C3CCC3)c2=O)cn1 [Compound 206, 2-amino-8-cyclobutyl-6-(6-methoxypyridin-3-yl)-4-methylpyrido[2,3-d]pyrimidin-7(8H)-one]
7 | 2.96 | COc1ccc(-c2cc3c(C)nc(N)nc3n(C3CCCC3)c2=O)cn1 [Compound 111, 2-amino-8-cyclopentyl-6-(6-methoxypyridin-3-yl)-4-methylpyrido[2,3-d]pyrimidin-7(8H)-one]
